AlphaSeq binding of Ab-14 heavy chain variants to a spike HR2 peptide

From the AlphaSeq antibody data of Engelhart et al. 2022 (doi:10.1038/s41597-022-01779-4), copy in the FLAb collection.

Binding partner: SARS-CoV-2 spike HR2 peptide, sequence PDVDLGDISGINAS.

Parent scFv Ab-14: VH joined to VL by a 15-residue (Gly4Ser)3 linker. Changes lie in the heavy chain CDRs alone.
VH: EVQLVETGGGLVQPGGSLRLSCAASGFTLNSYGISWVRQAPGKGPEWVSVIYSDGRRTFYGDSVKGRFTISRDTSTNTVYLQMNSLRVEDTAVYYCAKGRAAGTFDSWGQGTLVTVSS
VL: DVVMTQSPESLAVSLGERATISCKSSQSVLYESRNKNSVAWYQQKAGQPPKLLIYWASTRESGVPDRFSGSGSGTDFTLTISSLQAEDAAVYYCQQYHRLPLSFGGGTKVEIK

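The starting antibody came from a phage panning campaign against this peptide. The library (AAYL49) carries one to three amino acid substitutions per variant, with no insertions or deletions. The assay is AlphaSeq: two haploid yeast populations carry antibody and antigen on their surface. Binding brings cells together so that they mate, and sequencing counts the barcode pairs among the diploids. Scores were corrected for input abundance and mapped to Kd with protein pairs of known affinity run in the same pool. The assay was run in three technical replicates.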

Substitutions are numbered in sequence along the VH above, starting at 1 (not Kabat). Values are log10 of the apparent Kd in nM; lower means stronger binding. An entry "n.d." has no value in the source: the pair was not observed among the diploids in that replicate. This suggests poor binding but is not conclusive. For reference, the parent read 0.65 as the reference entry and 4.11 (one replicate of three) as a member of this library. As a blank, each scFv also met three strains without target: over library AAYL49, 15% of these pairings were detected, typically at 4.06 and seldom below 2.83. The control count says in how many pairings with the empty strains this scFv gave a signal, with their mean in brackets.

changes,"log10 Kd, replicates",empty controls
I34S/S53I/A101H,n.d. / n.d. / n.d.,0 of 9
S35P/G99Y/R100N,n.d. / n.d. / n.d.,0 of 9
F105E/D106F,1.96 / 1.73 / 2.07,3 of 9 (4.46)
Y32F/D54R/R56G,n.d. / n.d. / n.d.,0 of 9
L29S/S35Q/A102V,6.47 / n.d. / 4.21,2 of 9 (4.67)
S31W/F59W/A101V,3.72 / 3.61 / 3.91,4 of 9 (4.51)
N30D/Y52I/D62K,n.d. / n.d. / n.d.,1 of 9 (2.87)
G26S/T28Y/A102I,n.d. / n.d. / n.d.,1 of 9 (3.78)
R56T/S63Y/T104A,5.49 / n.d. / n.d.,0 of 9
Y32S/V50G/A102K,4.60 / 3.04 / n.d.,0 of 9
T28A/N30L/D62P,n.d. / n.d. / n.d.,2 of 9 (3.04)
G33M/G55Q/G99F,n.d. / n.d. / n.d.,1 of 9 (2.68)
S35D/V64N/S107E,3.94 / n.d. / n.d.,1 of 9 (3.67)
R56D/T58S/A101L,0.63 / 1.17 / 0.90,0 of 9
V50H/D62G/D106G,n.d. / n.d. / n.d.,3 of 9 (4.64)
N30P/A102C/D106A,n.d. / n.d. / n.d.,1 of 9 (3.42)
Y32L/Y60D/A101G,4.02 / n.d. / n.d.,1 of 9 (2.14)
S35T/R57A/S107V,n.d. / 4.04 / n.d.,2 of 9 (4.67)
Y52W/D106G,5.89 / n.d. / 5.78,1 of 9 (3.66)
N30E/G61V/G99K,n.d. / 3.92 / n.d.,2 of 9 (4.22)
G61C/G103E/T104P,n.d. / 3.90 / n.d.,1 of 9 (3.71)
Y32G/T58C/A102V,n.d. / n.d. / n.d.,1 of 9 (3.08)
N30F/G103Y/S107V,n.d. / n.d. / n.d.,3 of 9 (3.49)
N30G/D62Q/A102N,n.d. / 3.58 / n.d.,2 of 9 (4.36)
D54H/T104Q,n.d. / n.d. / n.d.,0 of 9
R57H/F59H/K65Y,n.d. / n.d. / n.d.,0 of 9
Y32E,1.14 / 1.34 / 0.96,0 of 9
I34Y/Y52T/G61L,3.65 / 4.09 / 3.43,6 of 9 (4.69)
S35L/S63Y/F105P,n.d. / n.d. / n.d.,0 of 9
T28M/Y32W/I51L,n.d. / n.d. / n.d.,1 of 9 (4.31)
Y32D/Y52P/K65M,n.d. / n.d. / n.d.,0 of 9
L29M/S63M/G99L,n.d. / n.d. / n.d.,1 of 9 (3.46)
I51S/F59C/S63T,n.d. / n.d. / n.d.,0 of 9
I51N/S53M/R56W,n.d. / 4.99 / 3.28,2 of 9 (3.39)
S35W/I51S/A102N,5.89 / 3.98 / 4.89,3 of 9 (4.85)
G55E/F105Y/S107M,2.94 / n.d. / n.d.,0 of 9
G55A/V64G/T104Y,n.d. / 3.61 / n.d.,2 of 9 (3.92)
L29D/V50N/D62C,5.85 / 4.38 / n.d.,2 of 9 (3.40)
S31P/D54T/K65W,n.d. / n.d. / n.d.,0 of 9
Y32H/S35N/Y60R,n.d. / 4.39 / n.d.,0 of 9
G26T/S35T/V50S,4.78 / 4.45 / 4.91,6 of 9 (4.79)
G26P/F59T/F105P,3.65 / 3.81 / n.d.,1 of 9 (3.34)
D62G/S63Y/A102K,n.d. / n.d. / n.d.,0 of 9

The 5 strongest on average among those seen in every replicate, once more:

changes,"log10 Kd, replicates",empty controls
R56D/T58S/A101L,0.63 / 1.17 / 0.90,0 of 9
Y32E,1.14 / 1.34 / 0.96,0 of 9
F105E/D106F,1.96 / 1.73 / 2.07,3 of 9 (4.46)
I34Y/Y52T/G61L,3.65 / 4.09 / 3.43,6 of 9 (4.69)
S31W/F59W/A101V,3.72 / 3.61 / 3.91,4 of 9 (4.51)